{"sequences": {"note": "By UniProt entry, the sequences of proteins in these tests, tags left out. Where a name states a change or a piece, a line headed by the entry shows the natural chain unless it says otherwise.", "UniProt Q9Y5X4": "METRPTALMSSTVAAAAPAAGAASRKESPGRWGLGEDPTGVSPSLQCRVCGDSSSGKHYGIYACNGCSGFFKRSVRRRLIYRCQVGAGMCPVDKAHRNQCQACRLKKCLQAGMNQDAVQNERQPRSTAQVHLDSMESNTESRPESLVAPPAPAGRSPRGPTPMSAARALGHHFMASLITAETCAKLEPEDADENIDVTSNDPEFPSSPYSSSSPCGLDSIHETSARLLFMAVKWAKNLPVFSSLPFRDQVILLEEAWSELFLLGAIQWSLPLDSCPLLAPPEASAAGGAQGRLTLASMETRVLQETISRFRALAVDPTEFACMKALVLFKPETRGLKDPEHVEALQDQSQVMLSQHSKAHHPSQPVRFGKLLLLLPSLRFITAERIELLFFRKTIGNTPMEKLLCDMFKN"}, "source": "PubChem BioAssay AID624378", "about": "(The Scripps Research Institute Molecular Screening Center, 2012)", "note": "This is a selection; strong and weak results do not stand in their true shares. Active and inactive are the calls of the source.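 Rule for the calls: active = average inhibition above a cutoff equal to the mean inhibition of all tested compounds plus one SD (cut at about 70% in these data); inactive = the rest.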"}
{"biological_target": "Photoreceptor-specific nuclear receptor (Homo sapiens) (UniProt Q9Y5X4)", "assay": "NR2E3 agonist confirmation in cells, cell-based, luminescence, CHO-S two-hybrid (AID 624378);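 note: 0% = DMSO in NR2E3 cells and 100% = DMSO in cells lacking NR2E3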", "conditions": "CHO-S mammalian two-hybrid NR2E3-NCOR, luciferase luminescence; at 3.98 µM; active compounds read high"}
{"smiles": "C[N+]1=C2C=CC=CC=C2SC12C([N+](=O)[O-])=CC([N+](=O)[O-])=C[C-]2[N+](=O)[O-]", "note": "(configuration not stated)", "inhibition": "inactive: -3.42%"}
{"smiles": "CC(=O)NC(SC(=S)N(C)C)C(Cl)(Cl)Cl", "note": "(configuration not stated)", "inhibition": "inactive: 8.72%"}
